The source of these data is patent publication US20130330358A1, “CRYSTAL STRUCTURE AND PEPTIDE INHIBITORS OF HAUSP DEUBIQUITINASE” (priority 2011, published 2013).

Protein sequences, listed by entry. Tags and fused reporters are not part of them. Residues count along the entry.
UniProt Q93009, 62-205: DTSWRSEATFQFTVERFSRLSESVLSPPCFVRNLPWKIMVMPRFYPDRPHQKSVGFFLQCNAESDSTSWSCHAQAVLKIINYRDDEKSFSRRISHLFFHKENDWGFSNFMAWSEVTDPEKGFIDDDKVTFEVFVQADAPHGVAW

For experiment [1], the target named is T1, HAUSP TRAF domain HAUSP^62-205 (Homo sapiens, UniProt Q93009).
T1 construct: HAUSP^62-205, and HAUSP^62-560 were fused to a hexahistidine-tag2 and expressed in E. coli BL21 (DE3) RIPL cells; hexahistidine (cleaved yes); made in house; host or cells: E. coli BL21 (DE3) RIPL
The experiment is described as follows: biochemical. It counts as binding. On the procedure: FIG. 5. Typical isothermal titration calorimetric measurements of the interactions between the HAUSP TRAF domain and the vIRF4 protein derivatives or other peptides. Purified proteins and synthesized peptides were reconstituted in 150 mM NaCl and 10 mM HEPES (pH 7.0). The calorimetric assays were performed using a VPITC system. All experiments were carried out with a stirring speed of 300 rpm at 20° C., and the thermal power was recorded every 10 s. Data were analyzed using the ORIGIN software package (version 7.0). […] Each titration against the HAUSP TRAF domain is indicated in each panel.
Purified proteins and synthesized peptides (Peptron Inc., Deajeon, Korea) were reconstituted in 150 mM NaCl and 10 mM HEPES (pH 7.0). The calorimetric assays were performed using a VP-ITC system (MicroCal Inc., Northampton, Mass.). Samples were degassed by vacuum aspiration for 15 min prior to loading. All experiments were carried out with a stirring speed of 300 rpm at 20° C., and the thermal power was recorded every 10 s. Data were analyzed using the ORIGIN software package (version 7.0) supplied with the instrument. […]

The target in experiment [2] is T2, HAUSP TRAF domain (Homo sapiens, UniProt Q93009).
T2 construct: HAUSP^62-205, and HAUSP^62-560 were fused to a hexahistidine-tag2 and expressed in E. coli BL21 (DE3) RIPL cells; hexahistidine (cleaved yes); made in house; host or cells: E. coli BL21 (DE3) RIPL
The experiment is described as follows: Competitive ITC: vIRF4^202-216 titrated into cellular substrate peptide-TRAF mixtures. It counts as binding.

In the case of `CSCC[C@H](NC(=O)CNC(=O)[C@H](CO)NC(=O)[C@@H](NC(=O)[C@H](CO)NC(=O)[C@H](C)NC(=O)CNC(=O)[C@@H](N)CCC(=O)O)[C@@H](C)O)C(=O)O` [vIRF4^209-216], binding in experiment [1] was put at a Kd of 9570 ± 190 nM. Also, the “fold decrease in TRAF binding affinity” value in experiment [1] (compared with the vIRF4^202-216 peptide) was 25 fold.
On to `CC[C@H](C)[C@H](NC(=O)[C@H](Cc1c[nH]c2ccccc12)NC(=O)[C@@H](NC(=O)[C@@H](N)CO)C(C)C)C(=O)N1CCC[C@H]1C(=O)N[C@H](C(=O)N[C@@H](CC(N)=O)C(=O)N[C@@H](CCC(=O)O)C(=O)NCC(=O)N[C@@H](C)C(=O)N[C@@H](CO)C(=O)N[C@H](C(=O)N[C@@H](CO)C(=O)NCC(=O)N[C@@H](CCSC)C(=O)O)[C@@H](C)O)C(C)C` [vIRF4^202-216], for which the equilibrium dissociation constant (Kd) (in general, the free concentration of one partner at which half of the binding sites on the other are occupied at equilibrium, for simple one-to-one binding) in experiment [2] (vIRF4^202-216 to MDM2^137-152-TRAF) was 92 nM; in experiment [2] (vIRF4^202-216 to p53^350-364-TRAF), 23 nM; in experiment [2] (vIRF4^202-216 to p53^355-369-TRAF) it was 28 nM.
